Only a part of the results on these compounds is given; other tests are left out.
Tested on: MHR black-grass plants
Experiment: Phytotoxicity screen: compound pre-treatment of MHR black-grass followed by chlortoluron, scored for phytotoxic injury
Assay type: in vivo, black-grass (Alopecurus myosuroides)
Conditions: compound at 80 g a.i. ha^−1 on 14 day old MHR black-grass; chlortoluron 500 g a.i.ha^−1 48 h later; scored after 10 days

**Q.** How did the “Score (phytotoxic injury)” value turn out when `O=[N+]([O-])c1cc([N+](=O)[O-])c2c(c1)no[n+]2[O-]` was run?
**A.** +

**Q.** How did the “Score (phytotoxic injury)” value turn out when `O=[N+]([O-])c1cc([N+](=O)[O-])c2no[n+]([O-])c2c1` was run?
**A.** +

From US20100184601A1, “Method and Means Relating to Multiple Herbicide Resistance in Plants” (University of Durham, priority 2007, published 2010)
